This assay deals with HeLa viability, CellTiter-Glo luminescence, 24 h. Put plainly: HeLa cell cytotoxicity, dose response, cytotoxicity control for MgcRacGAP inhibitor project (AID 624300).

The term CC50 denotes the concentration at which the toxic effect on the cells reaches its halfway point. On to `CCCCCCCCCCCCCCCC1C[N+](C)(C)CCOP(C)(=O)O1` (stereo unspecified), for which the CC50 is 57.3 µM.

The values above are taken from PubChem BioAssay AID624300 (Southern Research Specialized Biocontainment Screening …, 2012).
